{"sequences": {"note": "The chains behind the UniProt entries cited, without tags or fusion partners. Where a name states a change or a piece, a line headed by the entry shows the natural chain unless it says otherwise.", "UniProt Q14524, whole entry": "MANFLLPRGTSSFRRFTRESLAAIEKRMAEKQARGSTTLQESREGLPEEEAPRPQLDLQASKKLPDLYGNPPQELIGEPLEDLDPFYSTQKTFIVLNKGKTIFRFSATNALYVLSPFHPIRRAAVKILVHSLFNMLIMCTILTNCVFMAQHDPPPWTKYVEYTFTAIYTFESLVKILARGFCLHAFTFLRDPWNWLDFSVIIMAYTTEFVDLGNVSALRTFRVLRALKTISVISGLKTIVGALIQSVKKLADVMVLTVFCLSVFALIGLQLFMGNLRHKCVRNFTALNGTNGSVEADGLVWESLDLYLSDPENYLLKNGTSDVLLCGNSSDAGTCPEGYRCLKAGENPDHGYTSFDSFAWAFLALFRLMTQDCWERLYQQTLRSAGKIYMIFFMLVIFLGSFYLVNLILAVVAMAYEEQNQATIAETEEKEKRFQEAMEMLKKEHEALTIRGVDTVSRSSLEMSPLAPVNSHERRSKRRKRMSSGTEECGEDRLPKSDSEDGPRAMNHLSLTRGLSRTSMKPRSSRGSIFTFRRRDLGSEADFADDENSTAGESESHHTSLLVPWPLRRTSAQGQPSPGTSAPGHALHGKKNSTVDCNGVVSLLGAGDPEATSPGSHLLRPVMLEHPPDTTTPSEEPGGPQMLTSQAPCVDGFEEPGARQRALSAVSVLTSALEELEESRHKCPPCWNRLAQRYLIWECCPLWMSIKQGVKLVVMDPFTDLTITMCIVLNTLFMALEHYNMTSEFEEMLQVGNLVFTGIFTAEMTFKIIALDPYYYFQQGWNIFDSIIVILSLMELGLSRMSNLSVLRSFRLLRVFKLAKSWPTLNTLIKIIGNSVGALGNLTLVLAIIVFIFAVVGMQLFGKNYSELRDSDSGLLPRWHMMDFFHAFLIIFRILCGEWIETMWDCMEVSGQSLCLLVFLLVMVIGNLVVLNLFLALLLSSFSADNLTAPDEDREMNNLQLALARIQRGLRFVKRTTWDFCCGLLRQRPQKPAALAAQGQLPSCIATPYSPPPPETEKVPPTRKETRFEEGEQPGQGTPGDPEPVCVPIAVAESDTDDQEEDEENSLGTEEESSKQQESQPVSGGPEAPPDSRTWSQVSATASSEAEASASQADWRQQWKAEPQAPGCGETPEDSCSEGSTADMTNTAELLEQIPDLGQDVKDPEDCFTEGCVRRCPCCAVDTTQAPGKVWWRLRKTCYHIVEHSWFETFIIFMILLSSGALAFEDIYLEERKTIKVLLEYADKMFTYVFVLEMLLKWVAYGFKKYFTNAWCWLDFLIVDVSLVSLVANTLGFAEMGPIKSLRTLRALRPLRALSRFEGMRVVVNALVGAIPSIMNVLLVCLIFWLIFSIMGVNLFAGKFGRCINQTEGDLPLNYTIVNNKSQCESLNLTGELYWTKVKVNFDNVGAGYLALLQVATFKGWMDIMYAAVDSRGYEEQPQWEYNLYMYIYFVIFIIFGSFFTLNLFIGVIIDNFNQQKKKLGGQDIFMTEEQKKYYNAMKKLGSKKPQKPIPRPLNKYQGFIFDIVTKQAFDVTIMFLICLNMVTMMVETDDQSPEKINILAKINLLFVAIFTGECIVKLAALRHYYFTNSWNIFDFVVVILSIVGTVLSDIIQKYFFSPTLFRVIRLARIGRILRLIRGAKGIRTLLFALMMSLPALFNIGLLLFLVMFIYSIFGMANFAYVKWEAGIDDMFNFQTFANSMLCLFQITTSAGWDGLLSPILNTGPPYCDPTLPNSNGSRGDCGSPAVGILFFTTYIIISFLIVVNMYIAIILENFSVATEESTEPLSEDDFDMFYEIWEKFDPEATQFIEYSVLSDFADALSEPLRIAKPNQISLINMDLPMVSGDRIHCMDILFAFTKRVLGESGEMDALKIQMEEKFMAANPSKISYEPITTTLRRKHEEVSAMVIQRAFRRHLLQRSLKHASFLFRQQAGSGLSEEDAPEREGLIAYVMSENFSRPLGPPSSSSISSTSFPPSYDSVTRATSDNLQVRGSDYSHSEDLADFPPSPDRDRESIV", "UniProt Q12809": "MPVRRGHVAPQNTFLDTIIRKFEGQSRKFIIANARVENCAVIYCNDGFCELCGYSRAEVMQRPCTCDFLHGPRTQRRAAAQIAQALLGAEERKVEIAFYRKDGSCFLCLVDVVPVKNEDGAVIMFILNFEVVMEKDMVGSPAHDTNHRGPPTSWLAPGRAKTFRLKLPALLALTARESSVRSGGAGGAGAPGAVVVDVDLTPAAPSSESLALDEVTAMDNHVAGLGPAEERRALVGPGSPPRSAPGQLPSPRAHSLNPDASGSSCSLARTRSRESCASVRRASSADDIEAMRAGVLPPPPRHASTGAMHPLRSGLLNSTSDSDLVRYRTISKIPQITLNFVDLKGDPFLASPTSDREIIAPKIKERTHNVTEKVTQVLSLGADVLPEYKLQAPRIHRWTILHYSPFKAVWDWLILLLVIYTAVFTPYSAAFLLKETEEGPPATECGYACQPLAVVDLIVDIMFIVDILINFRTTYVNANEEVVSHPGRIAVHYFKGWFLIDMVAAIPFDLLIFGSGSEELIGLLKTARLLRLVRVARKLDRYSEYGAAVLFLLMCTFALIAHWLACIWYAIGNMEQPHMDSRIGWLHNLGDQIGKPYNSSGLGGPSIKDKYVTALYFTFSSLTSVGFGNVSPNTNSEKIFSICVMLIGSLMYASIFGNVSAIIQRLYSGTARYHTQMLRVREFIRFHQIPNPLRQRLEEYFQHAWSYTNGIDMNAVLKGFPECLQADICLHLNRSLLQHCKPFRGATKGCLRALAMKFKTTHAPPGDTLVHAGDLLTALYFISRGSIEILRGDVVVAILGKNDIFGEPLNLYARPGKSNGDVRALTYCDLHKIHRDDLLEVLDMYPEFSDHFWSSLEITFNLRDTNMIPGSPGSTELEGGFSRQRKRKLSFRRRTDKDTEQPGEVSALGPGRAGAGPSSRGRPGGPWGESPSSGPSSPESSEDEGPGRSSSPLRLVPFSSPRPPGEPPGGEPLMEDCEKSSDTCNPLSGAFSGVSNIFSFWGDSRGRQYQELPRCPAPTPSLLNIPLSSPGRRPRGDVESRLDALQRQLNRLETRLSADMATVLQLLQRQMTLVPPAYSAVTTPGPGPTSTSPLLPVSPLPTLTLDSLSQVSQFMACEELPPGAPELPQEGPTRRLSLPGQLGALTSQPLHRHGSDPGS"}, "source": "paper PMC4266452", "about": "“Prediction of Thorough QT study results using action potential simulations based on ion channel screens” (Journal of Pharmacological and Toxicological Methods, 2014)", "key": {"[1]": {"molecular_target": "T1, NaV1.5 (Homo sapiens, UniProt Q14524)", "test": "Second IonWorks Quattro NaV1.5 screen (GSK, Q2)"}, "[2]": {"molecular_target": "T2, hERG (Homo sapiens, UniProt Q12809)", "test": "cell-based"}, "[3]": {"test": "Plasma concentration (Cmax) during the TQT study, total and calculated free", "conditions": "Cmax 50mg/kg"}, "[4]": {"molecular_target": "T1, NaV1.5", "test": "IonWorks Quattro NaV1.5 screen (AstraZeneca, Q)", "conditions": "−log10 of IC50 in Molar, Hill n = 1, 0.0 = pIC50 ≤ 0 fitted"}, "[5]": {"molecular_target": "T2, hERG", "test": "IonWorks Quattro hERG screen (AstraZeneca, Q)"}}, "data": [{"smiles": "Cc1c(O)cccc1C(=O)N[C@@H](CSc1ccccc1)[C@H](O)CN1C[C@H]2CCCC[C@H]2C[C@H]1C(=O)NC(C)(C)C", "note": "[Nelfinavir]", "values": [{"measurement": "NaV1.5 pIC50 (Q2)", "setting": "[1]", "value": 3.3}, {"measurement": "IC50", "setting": "[2]", "value": 501, "unit": "µM"}]}, {"smiles": "CO[C@H]1C[C@@H]2CC[C@@H](C)[C@@](O)(O2)C(=O)C(=O)N2CCCC[C@H]2C(=O)O[C@H]([C@H](C)C[C@@H]2CC[C@@H](OCCO)[C@H](OC)C2)CC(=O)[C@H](C)/C=C(\\C)[C@@H](O)[C@@H](OC)C(=O)[C@H](C)C[C@H](C)/C=C/C=C/C=C/1C", "note": "[Everolimus]", "values": [{"measurement": "Cmax FREE", "setting": "[3]", "value": 68.1052, "unit": "nM"}]}, {"smiles": "Cc1nc(Nc2ncc(C(=O)Nc3c(C)cccc3Cl)s2)cc(N2CCN(CCO)CC2)n1.O", "note": "[Dasatinib]", "values": [{"measurement": "NaV1.5 pIC50 (Q)", "setting": "[4]", "value": 4.0}]}, {"smiles": "N[C@@H](CC(=O)N1CCn2c(nnc2C(F)(F)F)C1)Cc1cc(F)c(F)cc1F", "note": "[Sitagliptin]", "values": [{"measurement": "IC50", "setting": "[5]", "value": 1000, "unit": "µM"}]}, {"smiles": "CCN(CC)CCNC(=O)c1c(C)[nH]c(/C=C2\\C(=O)Nc3ccc(F)cc32)c1C", "note": "[Sunitinib]", "values": [{"measurement": "NaV1.5 pIC50 (Q2)", "setting": "[1]", "value": 4.4}]}]}
